From US11045472B2, “Quinazoline-pyridine derivatives for the treatment of cancer-related disorders” (ARCUS BIOSCIENCES, INC., priority 2017, dated 2021)

Amino acid sequences for entries named in this document (tags omitted).
UniProt P29275, whole entry: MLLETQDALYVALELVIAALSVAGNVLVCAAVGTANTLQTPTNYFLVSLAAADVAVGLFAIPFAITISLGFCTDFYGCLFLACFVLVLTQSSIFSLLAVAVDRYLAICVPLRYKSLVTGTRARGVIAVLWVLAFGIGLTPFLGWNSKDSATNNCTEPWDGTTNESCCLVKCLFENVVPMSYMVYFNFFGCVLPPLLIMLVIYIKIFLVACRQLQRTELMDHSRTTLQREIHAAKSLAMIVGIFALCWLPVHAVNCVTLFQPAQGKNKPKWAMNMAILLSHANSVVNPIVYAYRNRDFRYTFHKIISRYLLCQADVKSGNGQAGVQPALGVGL

Experiments:
Human A2AR = Human A2AR (Homo sapiens, UniProt P29274); test: human 2A Adenosine Receptor (A2aR) CHO-TREx cAMP functional assay; settings: read-out: Potency: A2AR KB; cAMP antagonist functional assay, CHO-T-REx cells expressing Human A2AR, NECA stimulation
Description: Measurement of the Adenosine Receptor Activity of Compounds using a human 2A Adenosine Receptor (A2aR) CHO-TREx cAMP Functional Assay
The cAMP antagonist functional assay (Perkin Elmer) was performed on CHO-T-REx cells induced to express Human A2AR. Cells were seeded to a white 384-well Opti plate at a density of 1,000 to 2,500 cells per well followed by incubation with various concentrations of compound (ranging from 1 μM to 0 μM) at 37° C. for 1 hour.
(§1) A 1:2 serial dilution of NECA (Sigma Aldrich) from 1 μM to 0 μM was added to the cell stimulation mixture and incubated for 30 min at 37° C. After 30 min incubation, 5 μL of Ulight-anti-cAMP (1:150 dilution with conjugate and lysis buffer provided by Perkin Elmer) and 5 μL of Eu-cAMP tracer (1:50 dilution with conjugate and lysis buffer provided by Perkin Elmer) was added the cells and incubated for an hour. FRET signal was detected with an Envision multilabel plate reader (Perkin Elmer) loaded with 615 nm […] filters and 665 nm emission filters.
(§2) Data analysis was performed using on GraphPad Prism (version 7.02) to determine the KB of the test compounds.

Human A2BR = Human A2BR (Homo sapiens, UniProt P29275); test: Human 2B Adenosine Receptor CHO-K1 cAMP functional assay; settings: read-out: Potency: A2BR KB; cAMP antagonist functional assay, CHO-K1 cells stably expressing Human A2BR, NECA stimulation
Description: Measurement of the Adenosine Receptor Activity of Compounds Using a Human 2B Adenosine Receptor CHO-K1 cAMP Functional Assay
CHO-K1 cells stably expressing Human Adenosine 2B Receptor (A2BR: Cat. No. M000329, GenScript) were purchased from GenScript Inc., Piscataway, N.J. 08854, USA.
The cAMP antagonist functional assay (Perkin Elmer) was performed on CHO-K1 cells stably expressing Human A2BR. 1×10^6 cells were seeded in T75 flasks and cultured at 37° C. and 5% CO2 overnight. 2,000-4,000 cells/well of stably-expressed A2bR CHO-K1 cells were then seeded to a white 384-well Opti plate followed by compound 1 incubation at various concentrations (ranging from 1 μM to 0 μM) at 37° C. for 1 hour.
as §1, §2

SMILES | Kb (Human A2AR) [µM] | Kb (Human A2BR) [µM]
COc1ccc2c(-c3cn(Cc4cccc(C5(O)CS(=O)(=O)C5)[n+]4[O-])nn3)nc(N)nc2c1 | 0.1 to 1 | 0.1 to 1
COc1cccc2c(-c3cn(Cc4cccc(C(C)(C)O)[n+]4[O-])nn3)cc(N)nc12 | < 0.1 | < 0.1
Nc1nc(-c2cn(Cc3cccc(C4(O)CCC4)[n+]3[O-])nn2)c2cccc(F)c2n1 | < 0.1 | < 0.1
COc1c(F)ccc2c(-c3cn(Cc4cccc(C5(O)CCC5)[n+]4[O-])nn3)nc(N)nc12 | < 0.1 | < 0.1
CC(C)(CO)c1cccc(Cn2cc(-c3cc(N)nc4c(F)cccc34)nn2)[n+]1[O-] | < 0.1 | 0.1 to 1
Cc1cccc2c(-c3cn(Cc4cccc(C5(O)CCC5)[n+]4[O-])nn3)nc(N)nc12 | < 0.1 | < 0.1
COc1cccc2c(-c3cn(Cc4cccc(C(C)(C)CO)[n+]4[O-])nn3)nc(N)nc12 | < 0.1 | < 0.1
COCC(C)(C)c1cccc(Cn2cc(-c3nc(N)nc4c(OC)cccc34)nn2)[n+]1[O-] | < 0.1 | 0.1 to 1
CC(C)(O)c1cccc(Cn2cc(-c3cc(N)nc4c(F)cccc34)nn2)[n+]1[O-] | < 0.1 | 0.1 to 1
Nc1nc(-c2cn(Cc3cccc(C4(O)CCC4)[n+]3[O-])nn2)c2cccc(Cl)c2n1 | < 0.1 | < 0.1
Nc1nc(-c2cn(Cc3cccc(C4=CCC4)[n+]3[O-])nn2)c2cccc(Cl)c2n1 | < 0.1 | 0.1 to 1
COc1cccc2c(-c3cnn(Cc4cccc(C5(O)CCC5)[n+]4[O-])c3)nc(N)nc12 | < 0.1 | 0.1 to 1
COc1cccc2c(-c3cn(Cc4cccc(C5CC5)[n+]4[O-])nn3)nc(N)nc12 | < 0.1 | < 0.1
COc1cccc2c(-c3cn(Cc4cccc(C5(O)CCC5)[n+]4[O-])nn3)nc(N)nc12 | < 0.1 | < 0.1
COc1c(F)ccc2c(-c3cn(Cc4cccc(C(C)(C)O)[n+]4[O-])nn3)nc(N)nc12 | < 0.1 | 0.1 to 1
COc1cccc2c(-c3cn(Cc4cccc(C5(O)CCOCC5)[n+]4[O-])nn3)nc(N)nc12 | < 0.1 | < 0.1
COc1cc(F)cc2c(-c3cn(Cc4cccc(C5(O)CCC5)[n+]4[O-])nn3)nc(N)nc12 | < 0.1 | < 0.1
